Patent US11331299B2, “Medicinal use of serrulatane diterpenes” (The University of Sydney, priority 2016, dated 2022)

Protein sequences, listed by entry. Tags and fused reporters are not part of them. Lines headed by an entry give the natural chain unless they say otherwise; changes in a name come on top. Residues count along the entry.
UniProt P21452, whole entry: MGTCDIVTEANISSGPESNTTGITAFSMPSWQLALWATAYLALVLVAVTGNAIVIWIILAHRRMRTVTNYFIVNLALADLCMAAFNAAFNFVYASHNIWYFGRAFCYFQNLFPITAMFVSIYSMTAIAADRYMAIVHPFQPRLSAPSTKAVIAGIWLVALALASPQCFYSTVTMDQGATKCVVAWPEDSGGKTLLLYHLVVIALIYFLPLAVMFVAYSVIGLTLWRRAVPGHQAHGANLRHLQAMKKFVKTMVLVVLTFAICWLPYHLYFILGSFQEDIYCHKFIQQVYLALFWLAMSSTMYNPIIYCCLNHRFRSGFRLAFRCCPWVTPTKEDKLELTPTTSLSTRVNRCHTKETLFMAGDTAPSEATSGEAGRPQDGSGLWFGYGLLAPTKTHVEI
UniProt Q9UPP1: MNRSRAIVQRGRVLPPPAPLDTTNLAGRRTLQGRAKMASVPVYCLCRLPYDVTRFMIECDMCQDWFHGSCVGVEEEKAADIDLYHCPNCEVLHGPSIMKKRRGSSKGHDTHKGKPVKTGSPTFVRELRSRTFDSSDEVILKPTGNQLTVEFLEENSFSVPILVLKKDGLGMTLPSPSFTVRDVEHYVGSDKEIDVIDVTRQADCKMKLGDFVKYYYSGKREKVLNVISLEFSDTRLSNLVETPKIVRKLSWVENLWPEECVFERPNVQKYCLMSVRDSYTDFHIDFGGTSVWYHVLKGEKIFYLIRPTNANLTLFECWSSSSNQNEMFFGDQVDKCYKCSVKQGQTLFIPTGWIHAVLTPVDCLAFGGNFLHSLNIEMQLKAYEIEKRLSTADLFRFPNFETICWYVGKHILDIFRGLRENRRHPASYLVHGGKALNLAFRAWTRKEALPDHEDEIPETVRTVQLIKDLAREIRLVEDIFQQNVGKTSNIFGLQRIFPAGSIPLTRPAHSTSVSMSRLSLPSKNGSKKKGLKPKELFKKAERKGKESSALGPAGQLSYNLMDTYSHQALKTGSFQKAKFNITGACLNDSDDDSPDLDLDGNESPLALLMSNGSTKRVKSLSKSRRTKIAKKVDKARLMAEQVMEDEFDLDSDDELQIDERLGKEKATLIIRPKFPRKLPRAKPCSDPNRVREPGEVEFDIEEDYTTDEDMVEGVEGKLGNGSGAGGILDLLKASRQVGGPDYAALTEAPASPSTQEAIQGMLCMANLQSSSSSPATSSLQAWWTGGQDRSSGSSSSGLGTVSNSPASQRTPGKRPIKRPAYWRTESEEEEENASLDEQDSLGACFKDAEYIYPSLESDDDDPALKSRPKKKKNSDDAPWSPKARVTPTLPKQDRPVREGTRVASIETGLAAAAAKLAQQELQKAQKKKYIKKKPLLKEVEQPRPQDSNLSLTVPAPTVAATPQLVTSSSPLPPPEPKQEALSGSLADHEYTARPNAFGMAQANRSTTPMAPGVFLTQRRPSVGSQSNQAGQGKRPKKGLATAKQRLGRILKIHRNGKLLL
UniProt P42574, 29-277: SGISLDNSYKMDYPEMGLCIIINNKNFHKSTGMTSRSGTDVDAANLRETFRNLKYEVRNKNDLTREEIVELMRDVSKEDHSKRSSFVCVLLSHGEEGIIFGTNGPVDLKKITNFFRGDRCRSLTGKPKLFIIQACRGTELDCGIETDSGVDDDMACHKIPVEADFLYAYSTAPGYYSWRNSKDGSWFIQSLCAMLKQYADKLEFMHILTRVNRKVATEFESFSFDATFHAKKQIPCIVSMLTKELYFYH
UniProt P43116: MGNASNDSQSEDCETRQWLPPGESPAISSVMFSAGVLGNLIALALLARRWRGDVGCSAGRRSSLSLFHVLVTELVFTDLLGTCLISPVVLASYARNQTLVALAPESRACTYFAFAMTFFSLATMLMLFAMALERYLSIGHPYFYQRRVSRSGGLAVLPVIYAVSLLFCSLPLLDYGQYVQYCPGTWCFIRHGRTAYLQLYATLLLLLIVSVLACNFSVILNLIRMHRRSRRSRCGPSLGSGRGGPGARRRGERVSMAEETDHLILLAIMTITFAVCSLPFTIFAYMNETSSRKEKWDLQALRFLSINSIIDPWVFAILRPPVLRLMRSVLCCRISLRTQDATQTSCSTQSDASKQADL

Tests used:
[1] = biological target: receptors (Bioprint panel) (Homo sapiens, UniProt P21452); experiment: biochemical
[2] = biological target: PHF8(h) (Homo sapiens, UniProt Q9UPP1); experiment: Epigenetic enzyme assay, Demethylases (KDMs); type: biochemical
[3] = biological target: enzymes (Bioprint panel) (Homo sapiens, UniProt P42574); experiment: biochemical
[4] = biological target: receptors (Bioprint panel) (Homo sapiens, UniProt P43116); conditions: read-out: Reference Compound IC50

`CCCC[C@H](NC(=O)[C@H](CC(C)C)NC(=O)CNC(=O)[C@@H](NC(=O)[C@H](Cc1ccccc1)NC(=O)[C@H](CO)NC(=O)[C@@H](N)CC(=O)O)C(C)C)C(N)=O` [[Nleu10]-NKA (4-10)] showed a pIC50 [1] of 8.54.

In the case of `CN(C)NC(=O)CCC(=O)O` [Daminozide, reference compound], the pIC50 [2] was 6.55.

Compound `CC(=O)N[C@@H](CC(=O)O)C(=O)N[C@@H](CCC(=O)O)C(=O)N[C@H](C(=O)N[C@H](C=O)CC(=O)O)C(C)C` [Ac-DEVD-CHO] has a pIC50 [3] of 8.54.

In the case of `CCCCC[C@H](O)/C=C/[C@H]1[C@H](O)CC(=O)[C@@H]1C/C=C\CCCC(=O)O` [PGE2], the pIC50 [4] was 8.57.

pIC50: −log10 of the molar value.
